Experimental data as given in US7101896B2, “Pharmaceutical compositions and methods for use” (Targacept, Inc., priority 1999, dated 2006).
pKi: −log10 of the molar value.

The chains behind the UniProt entries cited, without tags or fusion partners. Residues count along the entry.
UniProt P09483, 31-630 limits assumed: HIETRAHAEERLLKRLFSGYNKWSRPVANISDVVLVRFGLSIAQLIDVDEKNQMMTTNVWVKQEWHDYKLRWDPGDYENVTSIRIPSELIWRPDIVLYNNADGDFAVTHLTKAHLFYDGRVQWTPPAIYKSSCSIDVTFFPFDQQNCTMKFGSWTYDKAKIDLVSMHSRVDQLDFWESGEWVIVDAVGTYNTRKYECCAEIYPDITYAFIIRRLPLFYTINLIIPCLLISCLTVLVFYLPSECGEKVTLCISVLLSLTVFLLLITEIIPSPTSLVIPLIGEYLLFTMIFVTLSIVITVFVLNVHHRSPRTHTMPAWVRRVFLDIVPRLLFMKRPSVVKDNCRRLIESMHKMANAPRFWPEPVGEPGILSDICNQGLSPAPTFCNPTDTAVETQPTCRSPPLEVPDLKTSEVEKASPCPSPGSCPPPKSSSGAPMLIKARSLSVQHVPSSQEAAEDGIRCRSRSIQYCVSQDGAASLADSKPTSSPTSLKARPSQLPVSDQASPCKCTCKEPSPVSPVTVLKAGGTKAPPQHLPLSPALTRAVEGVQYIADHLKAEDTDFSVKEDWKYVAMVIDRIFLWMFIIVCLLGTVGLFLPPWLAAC
UniProt P12390, 25-500 limits assumed: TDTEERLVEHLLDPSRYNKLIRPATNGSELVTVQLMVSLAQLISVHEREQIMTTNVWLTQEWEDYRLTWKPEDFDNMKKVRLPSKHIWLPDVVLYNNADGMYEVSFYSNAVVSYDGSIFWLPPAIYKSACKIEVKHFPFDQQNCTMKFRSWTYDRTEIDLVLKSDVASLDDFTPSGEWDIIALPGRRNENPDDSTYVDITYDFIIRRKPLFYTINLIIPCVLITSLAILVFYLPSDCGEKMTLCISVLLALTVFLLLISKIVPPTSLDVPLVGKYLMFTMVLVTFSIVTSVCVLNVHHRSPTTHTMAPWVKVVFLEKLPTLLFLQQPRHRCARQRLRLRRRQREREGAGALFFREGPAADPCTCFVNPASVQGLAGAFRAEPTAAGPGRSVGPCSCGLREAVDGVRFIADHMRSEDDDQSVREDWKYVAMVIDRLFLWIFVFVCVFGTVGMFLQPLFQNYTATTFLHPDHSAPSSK

Biological target: CNS nicotinic receptors (Rattus norvegicus, UniProt P09483+P12390)
Assay: Determination of binding to relevant receptor sites
Conditions: read-out: Ki (inhibition constant, receptor binding); calculated from the IC50 values using the method of Cheng et al.; techniques of U.S. Pat. No. 5,597,919

Oc1ccc(Oc2cncc(/C=C/[C@@H]3CCCN3)c2)cc1
pKi: 7.70

C(#C[C@@H]1CCCN1)c1cncnc1
pKi: 7.34
